Bioassay records deposited in PubChem BioAssay by National Center for Advancing Translational Sciences (NCATS).
This is a sample that favours compounds with a hit; in the whole collection about 2.1% have one here.
A549 tox-1 – kills or reduces viability of A549 cells in Nrf2 counter-screen. hit rate 0.16% among 390,000. A549 ARE-Fluc cells, CellTiter-Fluor viability, 18-24 h. Potency, µM (series often up to 46 µM), usual class: inhibitors
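A549 ARE_Fluc cells in 5% FBS OPTI-MEM were exposed to compounds in concentration-response for 18-24 h at 37 deg C. Viability was read by CellTiter-Fluor fluorescence (Ex 405/Em 525) after 30 min, before the luciferase read.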
Nrf2 ARE act – Nrf2 pathway activation. Potency, µM (series often up to 46.1 µM), usual class: activators. AREc32 ARE-luciferase reporter (MCF7-derived line), luminescence, 24 h. hit rate 0.31% among 410,000; also: nearly all actives have a fitted effect of over 65% in size
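AREc32_Fluc, 1000 cells/well, OPTI-MEM + 5% FBS, o/n 37 deg C 5% CO2; 23 nL cpd by pin tool, 24 hr; Steady-Glo 30 min RT, luminescence.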
Nrf2 inh – blocks Nrf2 signaling. A549 ARE-Fluc reporter, luciferase luminescence, 18-24 h. Potency, µM (titrated, usually from 46 µM), hits mostly inhibitors. hit rate 2.1% among 360,000; also: nearly all actives have a fitted effect of over 60% in size
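Reporter: ARE-Fluc in A549. Exposure: 18-24 h, 37 °C, 5% CO2, 5% FBS OPTI-MEM. Readouts: fluorescent cytotoxicity (CellTiter-Fluor), then luminescent Nrf2 signal after BugLite.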
PTAP TSG101 blk – blocks PTAP/TSG101 interaction to inhibit HIV-1 budding. Fluorescence polarization, FITC-PTAP peptide / Tsg101 binding. Potency, µM (highest dose often 115 µM), most hits filed as inhibitors. 340,000 tested, under 10 active; active = well fitted inhibition curve with a large enough effect in the main read-out, with a control signal flat, not every such curve was filed as active; inconclusive = small, poorly fitted or top-dose-only effect, or effect the other way, or a change in a side signal; inactive = no such curve, though single readings can be large or run the other way
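Steps: Tsg101 binding domain dispensed (10 uM final), compounds pinned in DMSO, FITC-labeled PTAP-motif peptide added (50 nM final); after 20 min binding at room temperature, polarization measured.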
miR-21 reporter – miR-21 reporter, rising signal | 340,000 tested, under 10 active | AID 2288 | HeLa miR-21 FLuc reporter, luciferase, 48 h | Potency, µM (titrated, usually from 38.3 µM); active = well fitted rising curve with a large enough effect; inconclusive = small, poorly fitted or top-dose-only effect; inactive = no such curve, though single readings can be large or run the other way;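 further: miR-21 action dims this reporter so a rising signal means less miR-21 action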
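HeLa cells stably expressing CMV-driven firefly luciferase with a downstream miR-21 binding sequence, endogenously expressing miR-21, were treated with titrations (up to about 40uM final) for 48 hours at 37 degree Celsius. Luciferase luminescence was read after lysis.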
GRP78 ERSR act – inducers of ER stress response in human glioma cells; U87-MG GRP78 promoter luciferase reporter, 16 h; Potency, µM, usual class: activators; hit rate 0.02% among 420,000; also: series mostly up to about 76 µM; nearly all actives have a fitted effect of over 35% in size
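ERSR induction read as luciferase luminescence (Bright-Glo, 10 min at room temperature) in stably transfected human U87-MG glioma cells exposed to compounds for 16 h, using GRP78 as sensor.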
FLuc counter 3 – blocks purified firefly luciferase in Nrf2 counterscreen; Potency, µM (titrated, usually from 57.5 µM), hits mostly inhibitors; purified firefly luciferase, luminescence inhibition; shares compounds with Nrf2 inh; hit rate 4% among 1,400; also: nearly all actives have a fitted effect of over 65% in size
A549 tox-2 – A549 cytotoxicity, Nrf2 inhibitor counterscreen | A549 ARE-Fluc cells, cytotoxicity counterscreen | hit rate 2% among 1,400 | shares compounds with Nrf2 inh | AID 720523 | Potency, µM (highest dose often 46.1 µM), usual class: inhibitors;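 also: cells exposed to compounds for 18 to 24 hours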
Nrf2 ARE inh – reduces Nrf2 ARE reporter signal in A549 cells. shares compounds with Nrf2 inh. A549 ARE-firefly luciferase reporter, luminescence. Potency, µM (titrated, usually from 46.1 µM), hits mostly inhibitors. hit rate 74% among 1,400; also: nearly all actives have a fitted effect of over 65% in size
Numbers stand for hits; – = inactive; ? = inconclusive; · = not tested or not shown; [ ] = dose if it differs, or a comment. Unless noted, calls follow the shape of the dose curve; as a rule, active = well fitted curve in the direction sought with a large enough effect; inconclusive = small, poorly fitted or top-dose-only effect, or another doubt; inactive = no such curve, though single readings can be large; an effect the other way counts as inactive or inconclusive.

SMILES | A549 tox-1 | Nrf2 ARE act | Nrf2 inh | PTAP TSG101 blk | miR-21 reporter | GRP78 ERSR act | FLuc counter 3 | A549 tox-2 | Nrf2 ARE inh
Cc1ccc(-c2noc(C3CCN(S(=O)(=O)c4ccc5c(c4)OCCO5)CC3)n2)o1 | – | – | 6.5µM | – | – | – | – | – | 12µM
Cc1ccc(-c2noc(C3CCCN(S(=O)(=O)c4ccc5ccccc5c4)C3)n2)o1 (stereo not given) | – | – | ? | – | – | – | · | · | ·
O=S(=O)(c1ccc2ccccc2c1)N1CCC(c2nc(-c3ccncc3)no2)CC1 | – | – | 4.1µM | – | – | – | – | – | ?
O=S(=O)(c1ccc2c(c1)OCCO2)N1CCC(c2nc3ccccc3s2)CC1 | –[1.84 µM] | – | 3.3µM | – | – | – | – | – | –
O=S(=O)(c1ccc2c(c1)OCCO2)N1CCC(c2nc3ccccc3[nH]2)CC1 | – | – | · | – | – | – | · | · | ·
O=S(=O)(c1ccc2c(c1)OCCO2)N1CCC(c2nc3ccc(Cl)cc3[nH]2)CC1 | ? | – | 4.6µM | · | – | – | – | – | 10µM
CN(C)c1ccc(-c2noc(C3CCN(S(=O)(=O)c4cccc(Cl)c4)CC3)n2)cc1 | – | – | · | – | – | – | · | · | ·
COc1ccc(S(=O)(=O)N2CCC(c3nc4ccccc4s3)CC2)cc1OC | – | – | – | · | – | – | · | · | ·
O=C(Nc1nnc(Cc2ccccc2)s1)C1CCN(C(=O)c2cccs2)CC1 | – | · | ? | · | · | – | · | · | ·
O=C(c1cccc(Cl)c1Cl)N(Cc1ccco1)Cc1cccs1 | – | · | – | · | · | – | · | · | ·
COc1cccc(/C=C/c2ccnc3ccccc23)c1OC | · | · | · | · | · | – | · | · | ·
COc1ccc(C(=O)Oc2cc(/C=N/NS(=O)(=O)c3ccccc3)ccc2OC)cc1 | – | – | · | – | – | – | · | · | ·
COc1ccc(/C=N/NS(=O)(=O)c2ccc(C)cc2)cc1OC(=O)c1ccc(C)cc1 | – | – | 5.2µM | – | – | – | – | – | ·
COc1cccc(O)c1O | · | · | · | · | · | – | · | · | ·
CCCCCc1ccc(OCCOCCn2c[n+](C)c3ccccc32)c(CCCCC)c1 | – | – | 7.3µM | – | ? | – | – | ? | ·
O=C(Cc1ccc2c(c1)OCO2)N1CCOc2ccc(CN3CCOCC3)cc2C1 | · | · | · | · | · | – | · | · | ·
C[C@H](NC(=O)c1nc[nH]c1C(=O)N[C@@H](CCCCNC(=O)OC(C)(C)C)C(=O)OC(C)(C)C)C(=O)OC(C)(C)C | – | – | ? | · | – | – | · | · | ·
CC(C)(C)OC(=O)NCCCC[C@H](NC(=O)c1nc[nH]c1C(=O)NC(c1ccccc1)c1ccccc1)C(=O)OC(C)(C)C | ? | – | 3.7µM | ? | – | – | – | ? | 21µM
CCC(C)N1CCC2(CC1)N=c1c(c3c4c5c(C)c(O)c3c(O)c1=NC(=O)C(C)=CC=C[C@H](C)[C@H](O)[C@@H](C)[C@@H](O)[C@@H](C)[C@H](OC(C)=O)[C@H](C)[C@@H](OC)C=CO[C@@](C)(O5)C4=O)N2 (stereo not given in full) | ? | – | 8.2µM | – | · | – | – | ? | ?
CC(=O)NS(=O)(=O)c1ccc(NC(=O)c2cccc(S(=O)(=O)N3CCc4ccccc43)c2)cc1 | – | – | – | – | – | – | · | · | ·
CC(C)CCNC(=O)c1cccc(S(=O)(=O)N2CCc3ccccc32)c1 | – | – | – | – | – | – | · | · | ·
O=C(NNC(=O)c1cccc(S(=O)(=O)N2CCc3ccccc32)c1)c1ccccc1 | – | – | 8.2µM | – | – | – | – | – | 5.2µM
CN(C)S(=O)(=O)c1cccc(NC(=O)c2cccc(S(=O)(=O)N3CCc4ccccc43)c2)c1 | – | – | 4.6µM | – | · | – | – | – | 16µM
